# Apparent affinities of Ab-14 variants for a coronavirus HR2 peptide

Values reported by Li et al. 2023, doi:10.1038/s41467-023-39022-2 (FLAb copy).

Antigen: PDVDLGDISGINAS, a 14-residue peptide of the SARS-CoV-2 spike HR2 region.

The variants keep the light chain, the linker and the frameworks of Ab-14 (scFv order VH, a (GGGGS)3 linker, VL).
VH: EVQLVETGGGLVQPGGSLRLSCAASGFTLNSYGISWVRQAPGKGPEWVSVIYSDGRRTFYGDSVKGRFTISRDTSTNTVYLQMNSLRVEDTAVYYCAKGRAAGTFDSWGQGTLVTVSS
VL: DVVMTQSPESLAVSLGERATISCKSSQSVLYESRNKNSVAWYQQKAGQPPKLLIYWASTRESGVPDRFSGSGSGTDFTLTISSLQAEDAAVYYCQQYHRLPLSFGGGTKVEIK

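Designed CDR sequences, proposed from the first random library and measured here. Group labels follow the data file (Ctrl: baseline library sampled from a position-specific scoring matrix, with some repeated check sequences; Rand: our label for a block that the file lists under HC and that is probably the random mutants of the ten best first-round binders; En: ensemble of fine-tuned language models; GP: Gaussian process model; GPLM: also part of the Gaussian process libraries; HC: hill climbing; Gen: genetic algorithm; Gibbs: Gibbs sampling; a sequence that several methods proposed may carry one label only). The scFvs were displayed on barcoded MATa yeast, the peptide on MATalpha yeast. Pairs that bind mate more often; barcode pairs of the diploids are counted by sequencing. Each replicate has its own calibration line, from reference interactions of the BCL2 family. Mating was done six times.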

Variants are written as CDR1, CDR2 and CDR3 of the heavy chain (limits as in the source). Parent: GFTLNSYGIS, VIYSDGRRTFYGDSVK, GRAAGTFDS. Scale: log10 of Kd in nM, estimated from mating counts; low values are strong binders. Replicates are averaged; those with no signal do not enter the mean. "n.d." marks a missing value. The strain was present, yet no cells mated with the target were sequenced in that replicate, which points to weak or no binding. Three control strains display no target. For all heavy chain designs, 1% of the pairings with them gave a signal, with a median of 2.08 and one signal in twenty below 0.84, so weak values seen in few replicates may be background. In the paper, a design with two or fewer of six values counts as a poor binder. Of ten entries with the parent sequence, four were seen in most replicates (averages 0.34 to 2.37), three in one and three in none, so single entries are noisy. Values of this round are not directly comparable with the first-round values of the same sequences.

CDR-H1 | CDR-H2 | CDR-H3 | group | replicates, log10 nM | log10 Kd (nM), mean
GFTLNQYGIS | VIYSDGWRTFYSDSVK | GRLAGTFDT | GP_HC | 0.91 / 0.11 / 0.35 / 0.37 / 0.46 / 0.46 | 0.44
GFDLNSYGIS | VIYSDGRRTFYCDSVK | GRAAVTFDS | GPLM_HC | 1.83 / 1.37 / 4.16 / 0.94 / 1.24 / 1.27 | 1.80
GFVLDSPGIS | VIYSDGRRTFYGDSVK | GRAAGTADS | Rand | n.d. / n.d. / n.d. / n.d. / n.d. / n.d. | n.d.
GFTLNQYGIT | VIYSDGHRTFYSDSVK | GRAAEFFDS | Rand | n.d. / n.d. / n.d. / n.d. / n.d. / n.d. | n.d.
KFTLNSYGIS | VIYSDGRRTFYGDAVK | GGWAGTFDS | Ctrl | n.d. / n.d. / n.d. / n.d. / n.d. / n.d. | n.d.
GFDLEEYGIS | VIYADGERVNYTEAVK | GQFSGVKMD | En_Gibbs | n.d. / n.d. / n.d. / n.d. / n.d. / n.d. | n.d.
GFHLNSYGIS | VIYSDGRRTFYQDSVK | GEAAGTFDS | GPLM_Gibbs | -1.23 / n.d. / -1.26 / -0.93 / n.d. / 0.45 | -0.74
GNSLDEYGIS | VIYADGMRTAYTDNFK | GVGSNTLVD | En_Gibbs | n.d. / n.d. / n.d. / n.d. / n.d. / n.d. | n.d.
GFTLNDYGIS | VIYSDGRRTAYGDSVK | GKAAGTFDS | GP_HC | 0.23 / -0.23 / -0.06 / 0.39 / -0.12 / -0.05 | 0.03
GFSLNQYGIS | VIYSDGRRTFYADSVK | GRTAGTFDS | GPLM_Gen | -0.47 / -0.29 / -0.32 / -0.30 / -0.41 / 0.01 | -0.30
GFTLNSYGIS | VIYSDGKRTFYSDSVK | GREAGTFDT | GP_Gen | -0.08 / -0.08 / -0.28 / 0.09 / -0.49 / -0.18 | -0.17
GFTIEEYGIS | VIYSDGRRTFYTDSVK | GRAAATFDS | Ctrl | n.d. / n.d. / n.d. / n.d. / n.d. / n.d. | n.d.
GFDLNEYGIS | VIYADGMRTAYTDSVK | GQVAGTFDL | En_Gen | -0.49 / -0.95 / -0.33 / -0.86 / -0.88 / -0.28 | -0.63
GFDLQEYGIS | VIYADGARYAYTNSVK | GTQDGSLIV | En_Gibbs | n.d. / n.d. / n.d. / n.d. / n.d. / n.d. | n.d.
GFDLNEYGIS | VIYADGRRTFYSDSVK | GEVAGTFVL | En_HC | 0.70 / -0.18 / 0.22 / -0.15 / 0.06 / 0.36 | 0.17
GEDLNSYGIS | VIYSDGRRTFYGDSVK | GRNAGTFDS | GP_Gibbs | 0.61 / 0.51 / 0.72 / 0.34 / 0.35 / 0.68 | 0.54
GFTLNSYGIS | VIYSDGRRCFYGDSVK | GVQGGTFDW | Ctrl | n.d. / n.d. / n.d. / n.d. / n.d. / n.d. | n.d.
GFNLNEYGIS | VIYADGRRKFYADSVK | GNTAGTFDA | En_HC | -0.67 / -0.79 / -0.85 / -0.93 / -0.72 / -0.69 | -0.78
GFDLNEYGIS | VIYADGMRTAYVDSVK | GQVAGTFDL | En_Gen | -1.68 / -2.51 / -1.36 / -1.82 / -2.60 / -1.01 | -1.83
GFDLNEYGIS | VIYADGRRTFYKDSVK | GEAAGTFDV | En_HC | 0.58 / 0.33 / 0.15 / -0.18 / 0.04 / 0.19 | 0.18
GFDLNEYGIS | VIYADGSRTAYADSVK | GNNAGTFDT | En_Gen | -0.09 / -0.08 / 0.09 / -0.11 / -0.05 / 0.45 | 0.03
GFDLNSYGIS | VIYSDGRRTFYVDDVK | GRTAGTFDS | GP_Gen | -0.06 / 0.36 / 0.08 / 0.11 / 0.05 / 0.18 | 0.12
GFDLNEYGIS | VIYADGMRKAYADDVK | GETAGTFDV | En_Gen | 0.12 / 0.37 / -0.16 / -0.21 / -0.31 / -0.36 | -0.09
GFDLNEYGIS | VIYADGRRTFYADSVK | GSEAGTFDV | En_HC | -0.62 / -0.61 / -0.65 / -1.02 / -0.39 / -0.72 | -0.67
GFTLNSYGIS | VIYSDGRRTSYGDSVR | ISAAGTFPS | Ctrl | n.d. / n.d. / n.d. / n.d. / n.d. / n.d. | n.d.
GFELNEYGIS | VIYSDGRRTFYADSVK | GRQAGTFDS | GPLM_Gen | 0.60 / 0.40 / 0.15 / -0.01 / -0.20 / 0.43 | 0.23
GFQLDEYGIS | VIYADGVRSSYVDDVK | GEITSAFSV | En_Gibbs | 1.42 / 1.98 / 1.68 / 1.82 / 2.19 / 1.41 | 1.75
GFDLNEYGIS | VIYADGMRTQYIDSVK | GNTAGTFDS | En_HC | 0.14 / -0.51 / -0.45 / -0.58 / -0.38 / 0.03 | -0.29
GFDLNEYGIS | VIYADGSRTFYSDSVK | GQTAGTFDM | En_HC | -0.28 / 0.17 / -0.19 / -0.32 / -0.39 / 0.24 | -0.13
GFDLNEYGIS | VIYADGRRTFYSDSVK | GNQAGTFDV | En_HC | -0.15 / -0.67 / -0.99 / -0.69 / 0.10 / 0.58 | -0.30
GFTLDEYGIS | VIYADGRRTFYTDSVK | GRFAGTFDS | Rand | -0.54 / -0.48 / -0.52 / -0.61 / -0.57 / -0.36 | -0.51
GFDLNEYGIS | VIYADGQRTFYADSVK | GTNGGTFDV | En_HC | -0.12 / 0.30 / -0.56 / 0.13 / 0.15 / -0.29 | -0.06
GFQLNSYGIS | VIYSDGRRTFYGDSVK | GRTAGTFDS | GPLM_Gen | n.d. / n.d. / n.d. / n.d. / n.d. / n.d. | n.d.
GFTLNEYGIS | VIYSDGRRTFYHDSVK | GRAAGTFWT | GP_HC | 0.14 / -0.95 / 0.83 / -1.00 / -0.50 / 0.22 | -0.21
GFTLNSYGIS | VIYSDGMRTFYGDSVK | GRAAGGFDS | Ctrl | n.d. / n.d. / n.d. / n.d. / n.d. / n.d. | n.d.
KFSLNSYGIS | VIYSDGRRTFYQDSVK | GEAAGTFDS | GP_Gen | 1.06 / n.d. / n.d. / n.d. / n.d. / n.d. | 1.06
GFTLNSYGIS | VIYSDGKRTFMQDSVK | GRAAGTFDS | Ctrl | n.d. / 1.73 / n.d. / n.d. / 1.43 / 2.34 | 1.83
GFSLNSYGIS | VIYSDGRRTFYVDSVK | GRAAGTFDS | GPLM_Gen | 1.02 / n.d. / n.d. / 1.34 / n.d. / n.d. | 1.18
GFDLNEYGIS | VIYADGKRTAYTDSVK | GHAAGTFDL | En_HC | 0.13 / n.d. / -0.10 / 0.03 / -0.13 / 0.45 | 0.08
GFDIQDLGIS | VIYADGLRTAYSDGFK | GIIAGTFNI | En_Gibbs | 0.25 / -0.40 / 0.43 / -0.41 / -0.21 / 0.24 | -0.02
GFTLNEYGIS | VIYSDGRRTFYSDSVK | GRAAGHFMS | GP_HC | n.d. / n.d. / n.d. / n.d. / n.d. / n.d. | n.d.
GFDLNSYGIS | VIYSDGRRTFYADSVK | GRSAGTFDS | GPLM_Gen | n.d. / n.d. / n.d. / 1.12 / n.d. / 0.71 | 0.92
GFSLNSYGIS | VIYSDGRRTFYADSVK | GQAAGTFDL | GPLM_Gen | 0.05 / 0.25 / 0.00 / -0.28 / -0.14 / 0.01 | -0.02
GFDLNEYGIS | VIYADGRRTFYSDSVK | GEAAGTFVI | En_HC | n.d. / n.d. / n.d. / n.d. / n.d. / n.d. | n.d.
GNTLNSYGIS | VIYADGRRTFYGDSVK | GWAADTFDS | Ctrl | n.d. / n.d. / n.d. / n.d. / n.d. / n.d. | n.d.
GFDLNEYGIS | VIYADGMRTFYADSVK | GNQAGTFDM | En_Gen | 0.48 / -0.14 / -0.20 / -0.31 / -0.43 / -0.24 | -0.14
GFTLNDYGIS | VIYSDGRRTFYGDSVK | WRNAGTFDS | Ctrl | 1.94 / 0.54 / 1.68 / 0.96 / 1.89 / 2.30 | 1.55
GFTLNSYGIS | VIYSDGRRTFYTDSVK | GQLAGTFDD | GP_HC | n.d. / 1.44 / 2.16 / 1.05 / 1.92 / 0.84 | 1.48

For reference, 5 entries of the list once more:

{"CDR-H1": "GFDLNEYGIS", "CDR-H2": "VIYADGMRTFYADSVK", "CDR-H3": "GNQAGTFDM", "group": "En_Gen", "replicates, log10 nM": "0.48 / -0.14 / -0.20 / -0.31 / -0.43 / -0.24", "log10 Kd (nM), mean": "-0.14"}
{"CDR-H1": "GFDLNEYGIS", "CDR-H2": "VIYADGRRTFYSDSVK", "CDR-H3": "GEAAGTFVI", "group": "En_HC", "replicates, log10 nM": "n.d. / n.d. / n.d. / n.d. / n.d. / n.d.", "log10 Kd (nM), mean": "n.d."}
{"CDR-H1": "GNSLDEYGIS", "CDR-H2": "VIYADGMRTAYTDNFK", "CDR-H3": "GVGSNTLVD", "group": "En_Gibbs", "replicates, log10 nM": "n.d. / n.d. / n.d. / n.d. / n.d. / n.d.", "log10 Kd (nM), mean": "n.d."}
{"CDR-H1": "GFDLNEYGIS", "CDR-H2": "VIYADGRRTFYKDSVK", "CDR-H3": "GEAAGTFDV", "group": "En_HC", "replicates, log10 nM": "0.58 / 0.33 / 0.15 / -0.18 / 0.04 / 0.19", "log10 Kd (nM), mean": "0.18"}
{"CDR-H1": "GFDLNSYGIS", "CDR-H2": "VIYSDGRRTFYVDDVK", "CDR-H3": "GRTAGTFDS", "group": "GP_Gen", "replicates, log10 nM": "-0.06 / 0.36 / 0.08 / 0.11 / 0.05 / 0.18", "log10 Kd (nM), mean": "0.12"}